The source of these data is paper PMC4096218 (Journal of Medicinal Chemistry, 2014).

In the test the test system is Saccharomyces cerevisiae (ATCC 208352). The test is classed as cell-based.

As to `O=C(O)CCN1C(=O)/C(=C/c2ccc(-c3ccc(Cl)cc3Cl)o2)SC1=S` [Compound 4], the “activity against S. cerevisiae” value is “no activity”.
For `Cc1cc(Cl)ccc1-c1ccc(/C=C2\SC(=S)N(CC(=O)O)C2=O)o1` [Compound 1], the “activity against S. cerevisiae” value is on record as “no activity”.
